The results in this text go back to patent US5610282A (The United States of America as represented by the …, priority 1995, dated 1997).

The chains behind the UniProt entries cited, without tags or fusion partners.
UniProt P18901, whole entry: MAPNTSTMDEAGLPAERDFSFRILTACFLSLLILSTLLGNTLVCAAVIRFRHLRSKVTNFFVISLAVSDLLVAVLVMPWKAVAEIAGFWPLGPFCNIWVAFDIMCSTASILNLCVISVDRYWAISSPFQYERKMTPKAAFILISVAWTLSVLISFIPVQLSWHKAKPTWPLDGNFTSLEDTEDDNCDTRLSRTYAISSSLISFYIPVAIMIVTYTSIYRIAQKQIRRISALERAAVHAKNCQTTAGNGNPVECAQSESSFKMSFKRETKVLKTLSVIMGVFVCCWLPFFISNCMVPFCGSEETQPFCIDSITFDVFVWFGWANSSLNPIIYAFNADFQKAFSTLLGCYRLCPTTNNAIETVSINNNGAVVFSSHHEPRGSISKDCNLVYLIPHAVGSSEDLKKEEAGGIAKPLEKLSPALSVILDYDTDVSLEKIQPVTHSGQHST

In general, Ki refers to the dissociation constant of the complex between target and ligand, obtained from inhibition or displacement. A higher Ki goes with lower affinity.

This assay deals with D1 dopamine receptor (Rattus norvegicus, UniProt P18901). Description: biochemical. The procedure: Expression studies, A full-length cDNA insert, including the multiple cloning site of the λ ZAP II vector, was amplified from the purified λ phage clone using T3 and T7 promoter primers and PCR as described above. […] Competent DH5α cells were transformed and clones containing the appropriate cDNA insert were used for large-scale plasmid preparations via the CsCl gradient purification method. […] The cells were treated with 3 mM sodium butyrate after 48 hours and were harvested after 72 hours.
(ii) Competition analysis of various dopaminergic ligands.

The molecule `O=C(CCCN1CCC2(CC1)C(=O)NCN2c1ccccc1)c1ccc(F)cc1` [spiperone] registered a Ki of 290 ± 7 nM.
